Data: patent publication US8349899B1 (Arrowhead Center, Inc., priority 2008, dated 2013)

How the values were obtained:
[1] = molecular target: T1, recombinant human EG5 motor domain (Homo sapiens, UniProt P52732); experiment: microtubule-activated Eg5 ATPase assay (Cytoskeleton, Inc); type: biochemical; conditions: for IC50: microtubule-activated ATPase activity of recombinant human EG5 motor domain; for inhibitory activity in the biochemical assay: Eg5 ATPase assay
T1 construct: recombinant human EG5 motor domain; purchased Cytoskeleton, Inc
T1 sequence (P52732 18-359 limits assumed): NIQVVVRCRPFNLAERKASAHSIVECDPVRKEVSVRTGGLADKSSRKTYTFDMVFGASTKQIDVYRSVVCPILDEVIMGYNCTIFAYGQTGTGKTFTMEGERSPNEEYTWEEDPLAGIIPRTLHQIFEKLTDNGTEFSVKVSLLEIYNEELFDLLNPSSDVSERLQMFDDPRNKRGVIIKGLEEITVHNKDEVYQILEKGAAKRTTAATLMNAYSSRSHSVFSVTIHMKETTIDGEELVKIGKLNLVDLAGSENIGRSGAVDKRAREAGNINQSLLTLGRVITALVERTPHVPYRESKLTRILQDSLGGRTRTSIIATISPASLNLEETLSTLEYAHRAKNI

Eg5 = Eg5 (Homo sapiens, UniProt P52732); conditions: HeLa cells

Compound	IC50 [1]	Eg5 at the monopole (Eg5; 5 μM, 4 hrs)	Eg5 on the spindle with increasing inhibitor (Eg5; 4 hrs, range of inhibitor doses)	Eg5 localization to the monopolar spindle relative to STLC-treated cells (Eg5; equivalent concentrations)	inhibitory activity in the biochemical assay [1]	inhibitory activity in the biochemical assay ([1]; listed as MSTCO)
COc1ccc(C(SC[C@@H](N)CO)(c2ccccc2)c2ccccc2)cc1 [Compound 1.3]	250 nM					
N[C@H](CO)CSC(c1ccccc1)(c1ccccc1)c1ccccc1 [Compound 1.1]	270 nM					
COc1ccc(C(SC[C@H](N)CO)(c2ccccc2)c2ccccc2)cc1 [Compound 1.0, 2-amino-3-[(4-methoxy-phenyl)-diphenyl-methylsulfanyl]-propan-1-ol]	230 nM	completely absent	progressively lost	consistently reduced	significant enhancement of activity	best performing analog
